{"source": "patent US7550506B2", "about": "“Amino acid derived prodrugs of propofol, compositions and uses thereof” (XenoPort, Inc., priority 2004, dated 2009)", "key": {"[1]": {"details": "substrate 2.0 μM, 37° C.", "procedure": "(§1) The stability of propofol prodrugs were evaluated in one or more in vitro systems using a variety of tissue preparations following methods known in the art. Tissues were obtained from commercial sources (e.g., Pel-Freez Biologicals, Rogers, Ark., or GenTest Corporation, Woburn, Mass.). Experimental conditions used for the in vitro studies are described in Table 1 below. Each preparation was incubated with test compound at 37° C. for one hour. Aliquots (50 μL) were removed at 0, 30, and 60 min and quenched with 0.1% trifluoroacetic acid in acetonitrile. Samples were then centrifuged and analyzed by LC/MS/MS (see Example 134 below for method details). Stability of drug conjugates towards specific enzymes (e.g., peptidases, etc.) were also assessed in vitro by incubation with the purified enzyme."}, "[2]": {"system": "pancreatin", "details": "1% (w/v) pancreatin, substrate 5.0 μM, pH 7.5, 37° C.", "procedure": "as §1\nPancreatin Stability: Stability studies were conducted by incubating conjugate (5 μM) with 1% (w/v) pancreatin (Sigma, P-1625, from porcine pancreas) in 0.025 M Tris buffer containing 0.5 M NaCl (pH 7.5) at 37° C. for 60 min. The reaction was stopped by addition of 2 volumes of methanol. After centrifugation at 14,000 rpm for 10 min, the supernatant was removed and analyzed by LC/MS/MS."}}, "data": [{"substance": "H-Ala-Thr(γ-OC(O)OPropofol)-OH Hydrochloride [(16)]", "values": [{"measurement": "% of Propofol Released from Propofol Prodrugs after 60 min, Human Plasma", "setting": "[1]; no cofactors", "value": 4, "unit": "%"}, {"measurement": "% of Propofol Released from Propofol Prodrugs after 60 min, Human Liver S9 (0.5 mg/mL)", "setting": "[1]; NADPH", "value": 22, "unit": "%"}, {"measurement": "% of Propofol Released from Propofol Prodrugs after 60 min, Pancreatin", "setting": "[2]", "value": 25, "unit": "%"}]}]}
